## Binding of CDR-mutated scFvs to a peptide of the spike HR2 region

Source: Engelhart et al. 2022 (doi:10.1038/s41597-022-01779-4), MIT Lincoln Laboratory and A-Alpha Bio; data file from the FLAb repository.

Target: peptide PDVDLGDISGINAS, taken from heptad repeat 2 (HR2) of SARS-CoV-2 spike.

Each scFv is VL, a 15-residue (Gly4Ser)3 linker, VH, as in the parent Ab-91, and differs from it in the CDRs of the heavy chain only.
VL: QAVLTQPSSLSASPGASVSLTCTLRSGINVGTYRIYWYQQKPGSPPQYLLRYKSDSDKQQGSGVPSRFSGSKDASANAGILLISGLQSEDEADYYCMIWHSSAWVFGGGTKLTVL
VH: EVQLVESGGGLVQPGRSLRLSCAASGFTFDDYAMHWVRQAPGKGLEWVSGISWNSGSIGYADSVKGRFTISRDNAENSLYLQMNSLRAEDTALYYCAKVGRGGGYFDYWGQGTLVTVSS

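The starting antibody came from a phage panning campaign against this peptide. The library (AAYL51) carries one to three amino acid substitutions per variant, with no insertions or deletions. AlphaSeq pools MATa yeast showing the antibodies with MATalpha yeast showing the peptide. Pairs that bind mate more often; barcode pairs of the diploids are counted by sequencing. Scores were corrected for input abundance and mapped to Kd with protein pairs of known affinity run in the same pool. There are three technical replicates.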

Variants are written as CDR1, CDR2 and CDR3 of the heavy chain (limits as in the source). Parent: GFTFDDYAMH, GISWNSGSIGYADSVK, VGRGGGYFDY. The read-out is the apparent dissociation constant on a log10 scale (nM): the lower, the stronger. Averages over replicates are reported, and they cover detected replicates only. Where no diploid with the target was found in that replicate, the entry reads "nd": below detection, most likely a poor binder, though not proof of it. Background: pairings of library AAYL51 with three empty control strains gave a value in 21% of cases (median 4.54, 5th percentile 3.26). Values in that range, when seen in few replicates, are hard to tell from nonspecific mating. Also given: how often the same scFv was detected with the empty control strains.

Variant SFTFYDYAMH | GISWNSGSIGYALSVK | VGRGGGYFDY gave nd, nd, nd (controls 0 of 9).
Variant GFTFDDYTMH | GISWNSGSVGYADSVK | VGRHGGYFDY gave nd, nd, nd (controls 1 of 9).
Variant GFTFDDYAMH | GISWNSGSIGYADAVP | VGREGGYFDY gave 5.06, nd, nd (controls 1 of 9).
Variant GFTFDGYAMH | GISWNAGSIGYADSVK | VGRGGGYFTY gave 4.98, nd, nd (controls 5 of 9).
Variant GFTFDDQAMH | GRSWNSGSIGYADSVG | VGRGGGYFDY gave 4.41, 5.43, nd (mean 4.92; controls 4 of 9).
Variant GFTFDDYAMH | GISWNSGSIGYADSVK | LGRNGGYVDY gave nd, nd, nd (controls 0 of 9).
Variant GFLFDDYAMH | GISWNSGSIGYADSHV | VGRGGGYFDY gave 4.31, nd, nd (controls 0 of 9).
Variant KFTFADYAMH | GISWNSGSIGHADSVK | VGRGGGYFDY gave nd, nd, nd (controls 3 of 9).
Variant GFTFDDYAMH | GISWNRGSIGAADSVK | VGSGGGYFDY gave nd, nd, nd (controls 0 of 9).
Variant GFTFDDYSMH | GISWNSGSIGYADSVC | VGRGGGYFDY gave nd, 4.76, nd (controls 4 of 9).
Variant GFTFDDYAMH | GINWVSGSIGYADSVK | VGCGGGYFDY gave nd, nd, nd (controls 2 of 9).
Variant PFTFDDYAMH | GISNNSGSIGYADSVW | VGRGGGYFDY gave 5.35, nd, nd (controls 1 of 9).
Variant GFFVDDYAMH | GISWNSGSIGYADSVK | VGRGGGYFDY gave 4.54, 4.75, 5.18 (mean 4.83; controls 6 of 9).
Variant GFTFDDYAMH | GIGWNSGGIGYADSVR | VGRGGGYFDY gave nd, nd, nd (controls 2 of 9).
Variant GFTFDDYAMH | GISWNSGSPGSAWSVK | VGRGGGYFDY gave nd, nd, nd (controls 0 of 9).
Variant GFTFLDDAMH | GISWNSGSIGYADSVK | VGRGGEYFDY gave nd, nd, nd (controls 1 of 9).
Variant GFTFDDYAMH | GISWNSGSRGYADSVK | VGRGGGLSDY gave 1.64, 1.52, 1.27 (mean 1.48; controls 7 of 9).
Variant GFTFDDYAMG | GISWNSGSIGYADSVK | VARGGGYFDW gave 3.68, 5.18, 6.16 (mean 5.01; controls 8 of 9).
Variant GFTFDDYAMH | GISWNSGSIGYATSVK | VGRGGGKFAY gave 1.44, 2.29, 1.35 (mean 1.69; controls 1 of 9).
Variant WFTFDDYAMH | GISWCSGSIGYADSVK | VGRGGGYFDY gave 3.87, 3.98, nd (mean 3.93; controls 0 of 9).
Variant GFTFDNYAMH | GISCNSGSIGYADSVK | VGRGGGYFCY gave nd, nd, nd (controls 0 of 9).
Variant GPTFDDYAMH | GVSMNSGSIGYADSVK | VGRGGGYFDY gave 4.91, nd, nd (controls 3 of 9).
Variant GFTFDDYAMH | GISWNSGSINYADSVK | VGRGNGVFDY gave 4.07, nd, nd (controls 2 of 9).
Variant GFTFDDYAMH | GIEWNWGSIGYADSVK | VGRGGGYHDY gave nd, nd, nd (controls 1 of 9).
Variant GFTFDDYAMI | GISWASGLIGYADSVK | VGRGGGYFDY gave 3.53, nd, nd (controls 1 of 9).
Variant GFTFDFYARH | GISWPSGSIGYADSVK | VGRGGGYFDY gave nd, nd, nd (controls 1 of 9).
Variant GFTFDDYAMH | GIWWNKGSIGYADSVK | VARGGGYFDY gave nd, nd, 5.03 (controls 2 of 9).
Variant GFTFDDYAMH | GISWNNGSIGYADSVK | CGRGGGYFEY gave 5.28, nd, nd (controls 0 of 9).
Variant GFTFDDYAIH | GIQWNSGSIGYADSVK | VGRGGDYFDY gave nd, nd, nd (controls 2 of 9).
Variant GFTFDDYAMH | GISWNSGSIGYADYVK | PGRGGAYFDY gave nd, nd, nd (controls 1 of 9).
Variant GFTFDDYAMH | GISWNSGSIGYADSVK | VGCGWGYFDY gave 2.96, 2.97, 2.49 (mean 2.80; controls 2 of 9).
Variant GCTFDDYKMH | GISWNSGSIGYADSVK | VRRGGGYFDY gave 2.41, nd, nd (controls 0 of 9).
Variant GFTFDDYAMH | GISWNSGSYGYADSVK | RGRGGGYFQY gave nd, nd, nd (controls 0 of 9).
Variant GFTFDDYAMH | GISTNSGSSGYADSLK | VGRGGGYFDY gave 1.32, 1.65, 0.90 (mean 1.29; controls 0 of 9).
Variant GWTFDDYAMH | GISWHSGSIWYADSVK | VGRGGGYFDY gave nd, 6.13, nd (controls 5 of 9).
Variant GFTFDDYAMH | GISWNTGFIGYADSVK | KGRGGGYFDY gave nd, nd, nd (controls 1 of 9).
Variant GFTFDDYVMH | GGSWNSGSIGYADSVF | VGRGGGYFDY gave nd, nd, nd (controls 0 of 9).
Variant GFTFDDYAMH | GISWNSGSIGTADSVK | RGRGGGYFYY gave nd, 4.24, nd (controls 1 of 9).
Variant GFTFDDYAMW | GISWNSGSIGYYDSVK | VGRGGGYFDI gave 3.66, nd, nd (controls 1 of 9).
Variant GFTFDDYAMH | NISDNSGSIGYADSVK | VGRGGGFFDY gave 4.62, nd, nd (controls 1 of 9).
Variant GFTFDDYAMH | GISWNSGSIGYADSVA | VVRGGGYFDR gave 5.85, 5.75, nd (mean 5.80; controls 5 of 9).
Variant GFTTDQYAMH | GISWNSGSIGYADSVK | VGRGGSYFDY gave nd, nd, 3.88 (controls 4 of 9).
Variant GFTFSDYAMH | GISWNLGSIGYADSVK | VGRGGGYFDE gave 2.07, 2.20, 1.81 (mean 2.03; controls 0 of 9).
Variant GFTFDDYAMH | GISWESGSIGYADSVK | DGRGTGYFDY gave nd, nd, nd (controls 1 of 9).
Variant GFTFDDYAMH | HISWNSGSIGYLDSVK | VGRGGCYFDY gave nd, nd, nd (controls 0 of 9).
Variant GFTNDDYAMH | GGSWVSGSIGYADSVK | VGRGGGYFDY gave 4.76, nd, nd (controls 5 of 9).
Variant GFTFDDYAMH | GLSWNSGSIGYNDSVK | VGRGGGPFDY gave 5.93, 5.98, nd (mean 5.96; controls 3 of 9).
Variant GFTFDDYAMH | GWAWNSGSRGYADSVK | VGRGGGYFDY gave 5.73, 4.79, nd (mean 5.26; controls 1 of 9).
Variant GFTFDDRAMH | GISWNSGSKGYADSVK | VGRGGGYFDY gave nd, nd, nd (controls 0 of 9).

For reference, 6 entries of the list once more:

CDR-H1,CDR-H2,CDR-H3,"replicates, log10 nM","log10 Kd (nM), mean",signal with controls
PFTFDDYAMH,GISNNSGSIGYADSVW,VGRGGGYFDY,"5.35, nd, nd",5.35,1 of 9
GFTTDQYAMH,GISWNSGSIGYADSVK,VGRGGSYFDY,"nd, nd, 3.88",3.88,4 of 9
GFLFDDYAMH,GISWNSGSIGYADSHV,VGRGGGYFDY,"4.31, nd, nd",4.31,0 of 9
GFTFDDYAMH,GISWNSGSRGYADSVK,VGRGGGLSDY,"1.64, 1.52, 1.27",1.48,7 of 9
GFTFDDYAMH,GISWNSGSIGYADAVP,VGREGGYFDY,"5.06, nd, nd",5.06,1 of 9
GFTFDDYSMH,GISWNSGSIGYADSVC,VGRGGGYFDY,"nd, 4.76, nd",4.76,4 of 9